Test results as given in paper PMC7307210.

The chains behind the UniProt entries cited, without tags or fusion partners. Where a name states a change or a piece, a line headed by the entry shows the natural chain unless it says otherwise.
UniProt Q15436: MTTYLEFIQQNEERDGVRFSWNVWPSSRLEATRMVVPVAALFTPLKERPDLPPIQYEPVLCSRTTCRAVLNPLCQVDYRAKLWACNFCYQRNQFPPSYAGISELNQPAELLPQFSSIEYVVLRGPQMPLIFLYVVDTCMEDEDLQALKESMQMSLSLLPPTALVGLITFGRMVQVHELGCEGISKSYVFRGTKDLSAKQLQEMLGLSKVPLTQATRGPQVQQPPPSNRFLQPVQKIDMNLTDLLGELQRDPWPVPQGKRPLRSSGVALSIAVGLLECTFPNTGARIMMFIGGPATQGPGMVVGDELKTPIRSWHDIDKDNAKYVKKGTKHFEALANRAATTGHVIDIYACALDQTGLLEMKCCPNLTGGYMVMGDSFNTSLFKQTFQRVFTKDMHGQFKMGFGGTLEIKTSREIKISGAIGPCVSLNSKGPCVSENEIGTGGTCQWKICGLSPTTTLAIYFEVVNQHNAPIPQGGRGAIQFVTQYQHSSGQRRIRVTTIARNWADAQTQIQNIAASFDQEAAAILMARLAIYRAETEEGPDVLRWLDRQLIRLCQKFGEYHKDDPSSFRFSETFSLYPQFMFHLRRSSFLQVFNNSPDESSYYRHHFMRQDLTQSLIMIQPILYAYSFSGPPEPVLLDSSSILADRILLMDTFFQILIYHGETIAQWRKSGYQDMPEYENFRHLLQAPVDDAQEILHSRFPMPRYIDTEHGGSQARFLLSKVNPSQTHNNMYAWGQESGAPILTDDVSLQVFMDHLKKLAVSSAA

Assays:
SAR1B (human) = SAR1B (human) (UniProt Q9Y6B6); assay: liposome flotation assay; SAR1 on liposomes; SEC23A and SEC23B added both in competition, without or with SEC31A-af; SYPRO-Ruby staining of SAR1 and immunoblot of SEC23; SEC23A signal normalized to SAR1
SAR1B>A-helix (human) = SAR1B>A-helix (human) (UniProt Q9Y6B6); assay: as above

## SEC23A (from UniProt Q15436 1-765; O94855 1-1032) (complex)
SAR1B (human)
  fold binding relative to SAR1A, with SEC31A-af added: 5 fold
  fold recruitment relative to SAR1A: 5 fold
SAR1B>A-helix (human)
  fold reduction of binding (reference not clearly named): 2 fold
